The test system of this assay is SKBR3 cells. Description: Cell viability (CellTiter-Glo) for DM1 and MMAE conjugates. Format: cell-based. To be noted: SKBR3, a HER2 positive tumor cell line; compared with the ADCs. Here is the method: Mertansine (DM1) and monomethyl auristatin E (MMAE) were added to the acetylated SQFDA(Ph)2[…] (SEQ ID NO:28) meditope through the lysine amine.
Cell viability studies for the DM1 and MMAE conjugations: CellTiter-Glo® Luminescent Assay from Promega (#G7571) was used to detect cell viability. BT-474 or SKBR3 were seeded in white-walled 96-well plate and each well contained 100 μl of 10,000 BT-474 cells or 7,000 SKBR3 cells. Seeded cells were incubated at 37° C., 5% CO2 overnight for adherence. For the treatment, drugs with two fold of final concentration were prepared and 100 μL of drugs were added directly to each well. At 72 h, plates were equilibrated at room temperature and CellTiter Glo® Reagent was added to each well for cell lysis and luminescence reaction for 10 min. The luminescence was read by Biotek's Synergy 4 multi-detection microplate reader.
Background: Cellular ATP, detected with luciferase, serves as a proxy for viable cell number.

Here are results for one substance from patent publication US20200368364A1, “CYSTEINE PEPTIDE-ENABLED ANTIBODIES” (City of Hope, priority 2016, published 2020).

trastuzumab [clinical trastuzumab]: the tumor cell lysis entry was “much less effective”.
